Assay results as given in patent US7262052B1, “α-2/δ gene” (Warner Lambert Company, priority 1999, dated 2007).

By UniProt entry, the sequences of proteins in these tests, tags left out. Where a name states a change or a piece, a line headed by the entry shows the natural chain unless it says otherwise.
UniProt A0A287BIN3, entry or part of it: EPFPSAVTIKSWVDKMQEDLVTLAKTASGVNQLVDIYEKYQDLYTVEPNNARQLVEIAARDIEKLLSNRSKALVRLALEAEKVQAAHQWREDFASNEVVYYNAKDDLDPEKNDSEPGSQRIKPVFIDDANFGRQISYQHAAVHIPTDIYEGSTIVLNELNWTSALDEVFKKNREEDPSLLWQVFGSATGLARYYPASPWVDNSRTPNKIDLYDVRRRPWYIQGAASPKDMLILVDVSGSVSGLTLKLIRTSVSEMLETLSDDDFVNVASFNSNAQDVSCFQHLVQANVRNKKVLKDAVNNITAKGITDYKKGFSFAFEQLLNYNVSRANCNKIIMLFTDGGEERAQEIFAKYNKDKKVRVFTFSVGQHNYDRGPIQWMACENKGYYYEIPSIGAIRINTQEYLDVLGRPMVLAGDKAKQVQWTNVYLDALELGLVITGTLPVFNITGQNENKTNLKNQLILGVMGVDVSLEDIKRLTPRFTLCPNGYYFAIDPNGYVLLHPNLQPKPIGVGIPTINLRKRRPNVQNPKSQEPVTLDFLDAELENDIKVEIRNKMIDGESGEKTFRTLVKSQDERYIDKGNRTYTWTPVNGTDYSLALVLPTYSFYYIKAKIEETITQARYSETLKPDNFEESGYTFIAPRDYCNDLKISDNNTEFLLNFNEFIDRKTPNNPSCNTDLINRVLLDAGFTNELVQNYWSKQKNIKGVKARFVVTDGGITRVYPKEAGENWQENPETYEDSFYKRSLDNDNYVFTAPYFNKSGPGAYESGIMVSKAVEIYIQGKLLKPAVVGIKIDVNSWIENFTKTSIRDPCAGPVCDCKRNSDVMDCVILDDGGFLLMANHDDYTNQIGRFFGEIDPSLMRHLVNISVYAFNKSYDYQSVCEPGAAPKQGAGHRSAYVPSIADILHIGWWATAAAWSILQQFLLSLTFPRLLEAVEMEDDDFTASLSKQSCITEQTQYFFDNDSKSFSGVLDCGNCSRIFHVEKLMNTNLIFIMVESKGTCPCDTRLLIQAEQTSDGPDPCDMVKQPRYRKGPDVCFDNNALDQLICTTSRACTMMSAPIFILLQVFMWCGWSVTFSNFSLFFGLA

Molecular target: Porcine α2δ-A (Sus scrofa, UniProt A0A287BIN3)
Experiment: biochemical

Question: How did the Kd (KD, single determinations (n = 2), 21° C., COS-7 membranes) turn out when `NCC1(CC(=O)O)CCCCC1` [[3H]gabapentin, gabapentin] was run?
Answer: The Kd was 0.0231 µM and 0.0212 µM.

Question: What about the Kd (Mean KD, mean of n = 2) of the same compound?
Answer: Its Kd is 22.2 µM.

“And” between values parts separate entries of the source, which are not always exact repeats. Equal values may be shown once.
